Experimental findings from patent publication US20240116921A1, “LACTAM (HETERO)[…] DERIVATIVES AS INHIBITORS OF ERBB2” (EnLiven Therapeutics, Inc., priority 2020, published 2024) are described below.

The pIC50 is the negative decadic logarithm of the IC50, by convention in mol/L.

The subject of the assay is A431. The assay can be described thus: Cell viability assay (CellTiter Glo), A431. The settings on record: Homo sapiens, A-431, 72 h, read-out: IC50, cell viability, A431. Background: Cellular ATP, detected with luciferase, serves as a proxy for viable cell number.

Molecules are shown by their SMILES. pIC50: −log10 of the molar value.

Consider `CCOc1cc2ncc(C#N)c(Nc3ccc(OCc4ccccn4)c(Cl)c3)c2cc1NC(=O)/C=C/CN(C)C` [Neratinib, neratinib, reference compound], for which the negative-log IC50 (pIC50) is 7.36.
